Apparent affinities of Ab-14 variants for a coronavirus HR2 peptide

Source: Li et al. 2023 (doi:10.1038/s41467-023-39022-2), MIT Lincoln Laboratory and A-Alpha Bio; data file from the FLAb repository.

Antigen: PDVDLGDISGINAS, a 14-residue peptide of the SARS-CoV-2 spike HR2 region.

Parent: Ab-14, a human scFv built as VH, the linker GGGGSGGGGSGGGGS, VL. Only the CDRs of the heavy chain vary.
VH: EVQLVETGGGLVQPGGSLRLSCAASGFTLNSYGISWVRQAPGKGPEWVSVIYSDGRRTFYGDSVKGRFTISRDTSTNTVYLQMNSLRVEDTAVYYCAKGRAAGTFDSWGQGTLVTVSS
VL: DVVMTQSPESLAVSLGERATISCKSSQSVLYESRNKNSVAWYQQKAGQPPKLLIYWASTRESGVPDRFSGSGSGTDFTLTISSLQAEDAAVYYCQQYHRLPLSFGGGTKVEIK

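The starting antibody came from a phage panning campaign against this peptide. This is the validation round: designs drawn from the data on random variants, tested in the same kind of assay. Group labels follow the data file (Ctrl: baseline library sampled from a position-specific scoring matrix, with some repeated check sequences; Rand: our label for a block that the file lists under HC and that is probably the random mutants of the ten best first-round binders; En: ensemble of fine-tuned language models; GP: Gaussian process model; GPLM: also part of the Gaussian process libraries; HC: hill climbing; Gen: genetic algorithm; Gibbs: Gibbs sampling; a sequence that several methods proposed may carry one label only). In AlphaSeq, yeast of one mating type display the scFv and yeast of the other type display the target. Mating (16 h, 30 °C) was followed by selection of diploids and sequencing of their barcodes. A regression on co-assayed BCL2-family reference pairs converts the normalised counts of each replicate to an apparent Kd. There are six technical replicates.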

Each variant is given by its three heavy chain CDRs, as the data file delimits them; those of the parent are GFTLNSYGIS, VIYSDGRRTFYGDSVK, GRAAGTFDS.
The Kd shown is the geometric mean over detected replicates; a lower Kd is a better binder.
A pair that was not seen in any replicate is written "no signal"; this usually means weak binding, but a binder can also be missed.

| # | CDR-H1 | CDR-H2 | CDR-H3 | group | Kd | seen in | signal with controls |
|---|---|---|---|---|---|---|---|
| 1 | GFSLNEYGIS | VIYSDGRRTFYGDSVK | GRQAGTFIS | GP_Gen | no signal | 0/6 | 0/18 |
| 2 | GFDLNSYGIS | VIYSDGRRTFYGDSVK | GWAAGTFDK | GP_Gen | 13 nM | 4/6 | 0/18 |
| 3 | GFYLNEYGIS | VIYSDGRRTFYGDSVK | GKTAGTFDS | GP_Gen | 4.9 nM | 3/6 | 0/18 |
| 4 | GFTLNSYGIS | VIYSDGRRQFYHDSVK | GRAAGTFDS | Ctrl | 750 nM | 4/6 | 0/18 |
| 5 | GFTLNEYGIS | VIYSDGRRTFYGDSVK | GRAAGTFWL | GP_HC | no signal | 0/6 | 0/18 |
| 6 | GFTMNSYGIS | VIYSDGRRTFYGDSVK | GRAAGTFDL | Ctrl | no signal | 0/6 | 1/18 |
| 7 | GFDLNEYGIS | VIYADGRRTFYSDSVK | GQVAGIFNV | En_HC | 630 pM | 6/6 | 0/18 |
| 8 | GFTLNSYGIS | VIYSDGKRTFYIDSVK | GQAAGTFDL | GP_Gen | 58 nM | 6/6 | 0/18 |
| 9 | GFTLASYGIS | VIYSDGRRTFYGDSFK | GKAIGCFIS | Ctrl | no signal | 0/6 | 0/18 |
| 10 | GFDLNSYGIS | VIYSDGRRTFYGDQVK | GQTAGTFDA | GP_Gibbs | 1.1 nM | 6/6 | 0/18 |
| 11 | GFTLNSYGIS | VIYSDGRRTFYGDNVK | GRAAGKFDS | Ctrl | no signal | 0/6 | 0/18 |
| 12 | GFDLNEYGIS | VIYADGMRTAYADDVK | GENAGTFVL | En_Gen | 21 nM | 6/6 | 0/18 |
| 13 | GFDLNDYGIS | VIYADGRRTFYTDSVK | GRAAGAFDS | Ctrl | 10 nM | 6/6 | 1/18 |
| 14 | GFDLDEYGIS | VIYADGMRTAYSDSVK | GANAGTFDV | En_Gen | 220 pM | 6/6 | 0/18 |
| 15 | KFTLNSYGIS | VIYSDGRRTFYSDSVK | GRAAGTFRS | Ctrl | 110 nM | 4/6 | 1/18 |
| 16 | GFTLNEYGIS | VIYSDGIRTFYGDSVK | GRQAGTFDT | GP_Gibbs | 2.1 nM | 6/6 | 0/18 |
| 17 | GFTLNEYGIS | VIYSDGRRTFYGDSVK | GRHAGTFDE | GP_HC | 570 pM | 6/6 | 0/18 |
| 18 | GFDLNSYGIS | VIYSDGRRTFYGDSVK | GWAAGTFDD | GP_Gen | 8.7 nM | 6/6 | 1/18 |
| 19 | GFDLNEYGIS | VIYADGSRTFYSDSVK | GETAGTFDV | En_HC | 890 pM | 6/6 | 0/18 |
| 20 | GFNLNEYGIS | VIYADGMRTFYADSVK | GEIAGTFDF | En_HC | 220 pM | 6/6 | 0/18 |
| 21 | GFSLNEYGIS | VIYSDGRRTFYGDSVK | GKVAGTFDT | GP_Gibbs | 620 pM | 6/6 | 0/18 |
| 22 | GFDLDEYGIS | VIYADGSRTAYSDSVK | GENAGTFDV | En_Gen | 3.5 nM | 6/6 | 0/18 |
| 23 | GFDLDEYGIS | VIYADGMRTAYSDSVK | GSNAGTFDV | En_Gen | 240 pM | 6/6 | 1/18 |
| 24 | GYDLNEYGIS | VIYADGRRVAYIDDVK | GHVSDHFAL | En_Gibbs | no signal | 0/6 | 2/18 |
| 25 | GFDLNEYGIS | VIYADGQRTAYADSVK | GNVAGTFDK | En_Gen | 510 pM | 6/6 | 2/18 |
| 26 | GYTLNDYGIS | VIYSDGRRTQYIDSVK | GRAAGTFDS | GPLM_HC | no signal | 0/6 | 1/18 |
| 27 | GFSLNSYGIS | VIYSDGRRTFYTDSVK | GKNAGTFDS | GP_Gen | 3.8 nM | 6/6 | 0/18 |
| 28 | GFTLTSYGIS | VIYSDGKRTFYGDSVK | GRAAGTFDS | Ctrl | 52 nM | 4/6 | 1/18 |
| 29 | GFDLEEYGIS | VIYADGRRKQYTDAVK | GKFLVMMTV | En_Gibbs | no signal | 0/6 | 0/18 |
| 30 | GFDLNSYGIS | VIYSDGRRTFYMDMVK | GRTAGTFDS | GP_Gibbs | no signal | 0/6 | 0/18 |
| 31 | GFDLNSYGIS | VIYSDGRRTFYHDSVK | GQTAGTFDS | GP_Gen | 1.7 nM | 6/6 | 2/18 |
| 32 | GFDLNEYGIS | VIYADGRRTAYTDSVK | GHIAGTFDL | En_HC | 240 pM | 6/6 | 1/18 |
| 33 | GFDLNEYGIS | VIYADGRRTFYKDSVK | GNAAGTFDM | En_HC | no signal | 0/6 | 0/18 |
| 34 | GFDLNSYGIS | VIYSDGHRTFYGDSVK | GRGAGWFNS | Rand | no signal | 0/6 | 0/18 |
| 35 | GFTLNNYGIS | VIYSDGRRTFYGDDVK | GAAAGWFDS | Ctrl | no signal | 0/6 | 0/18 |
| 36 | GFTLNDYGIS | VIYSDGRRTFYSDSVK | GRAAVTFDT | GP_HC | no signal | 0/6 | 0/18 |
| 37 | GETLNSYGIS | VIYSDGRRTFYGDSVK | GQAAGTFDS | Ctrl | 170 nM | 1/6 | 0/18 |
| 38 | GFDLNSYGIS | VIYSDGRRTAYSDSVK | GRAAGTFDS | GP_Gen | 990 pM | 6/6 | 0/18 |
| 39 | GFDLNEYGIS | VIYADGRRTFYADSVK | GKNAGTFNM | En_HC | 360 pM | 6/6 | 0/18 |
| 40 | GFDLDEYGIS | VIYADGSRTAYADSVK | GNNAGTFDM | En_Gen | 1.2 nM | 6/6 | 1/18 |
| 41 | GFTLNDYGIS | VIYSDGRRTQYIDSVK | GRAGGTFDS | Rand | 55 nM | 6/6 | 1/18 |
| 42 | GFSLNNYGIS | VIYADGRRTFYGDSVK | GQAAGTFDS | GPLM_Gen | 350 pM | 6/6 | 0/18 |
| 43 | GFSLNDYGIS | VIYSDGKRTFYIDSVK | GRAAGTFDS | GP_HC | 660 pM | 6/6 | 0/18 |
| 44 | GFVLDEYGIS | VIYADGMRTVYAEDFK | GQNGGNFHH | En_Gibbs | no signal | 0/6 | 0/18 |
| 45 | GFDLNSYGIS | VIYSDGRRTFYQDHVK | GRTAGTFDS | GP_Gen | 17 nM | 4/6 | 0/18 |
| 46 | GFDLNEYGIS | VIYADGMRTFYTDSVK | GETAGTFDN | En_HC | 210 pM | 6/6 | 0/18 |
| 47 | GFDLDEYGIS | VIYADGMRTAYADKVK | GENAGTFDV | En_Gen | 1.2 nM | 6/6 | 1/18 |
| 48 | GFSLNEYGIS | VIYSDGRRTFYTDSVK | GREAGTFDS | GPLM_Gen | 1.6 nM | 6/6 | 0/18 |
| 49 | GFSIDEYGIS | VIYADGVRTAVDPSVK | GQMAAYFDK | En_Gibbs | no signal | 0/6 | 1/18 |
| 50 | GFQLNSYGIS | VIYSDGRRTFYADDVK | GRTAGTFDS | GP_Gen | 13 nM | 2/6 | 0/18 |
| 51 | GFTLNEYGIS | VIYSDGRRTFYGDSVK | GRTAGTFDE | GPLM_Gen | 980 pM | 6/6 | 0/18 |
| 52 | GFDLNEYGIS | VIYADGRRTAYSDSVK | GENAGTFDI | En_Gen | no signal | 0/6 | 0/18 |
| 53 | GFTLNSYGIS | VIYSDGRRTFYSDSVK | GEVAGTFDS | GPLM_Gen | 790 pM | 6/6 | 0/18 |
| 54 | GFDLDEYGIS | VIYADGKRTAYIDSVK | GNVAGTFDQ | En_Gen | 520 pM | 6/6 | 0/18 |
| 55 | GFSLDEYGIS | VIYADGMRSAYSDKVK | GEVDEYAYV | En_Gibbs | no signal | 0/6 | 0/18 |
| 56 | GFTLESYGYS | VIYSDGRRTFYGDSVK | GRAAGTFDQ | Ctrl | no signal | 0/6 | 0/18 |
| 57 | GFDLAEYGIS | VIYADGSRTAYNQNVK | GLGGDSFDI | En_Gibbs | no signal | 0/6 | 0/18 |
| 58 | GFWLNSYGIS | VIYSFGRRTFYGDSVK | GGAKDTFDS | Ctrl | no signal | 0/6 | 0/18 |
| 59 | GFNLDEFGIS | VIYADGSRQFYVESFK | GQFGGNIVN | En_Gibbs | no signal | 0/6 | 0/18 |
| 60 | GFNLNSYGIS | VIYSDGRRTFYVDSVK | GRTAGTFDS | GPLM_Gen | 120 nM | 5/6 | 0/18 |
| 61 | GFDLNSYGIS | VIYSDGKRTFYIDSVK | GQAAGTFDS | GP_Gen | 2.4 nM | 6/6 | 2/18 |
| 62 | GFTLNEYGIS | VIYSDGRRTFYDDSVK | GRVAGTFES | Ctrl | 8.0 nM | 2/6 | 0/18 |
| 63 | GFDLNEYGIS | VIYADGRRTFYADSVK | GHVAGTFVM | En_HC | 2.8 nM | 3/6 | 0/18 |
| 64 | GFTLNEYGIS | VIYSDGRRTFYSDSVK | GQAAGTFDT | GPLM_Gen | 870 pM | 6/6 | 0/18 |
| 65 | GFQLNEYGIS | VIYSDGRRTFYGDSVK | GHAAGTFDL | GP_Gen | 1.8 nM | 6/6 | 0/18 |
| 66 | HFNLNSYGIS | VIYSDGRRTFYADSVK | GRQAGTFDS | GPLM_Gibbs | 2.7 nM | 6/6 | 0/18 |
| 67 | GFTLDSYGIS | VIYSDGRRTFYGDSVK | GRAAGTFVD | GPLM_HC | no signal | 0/6 | 0/18 |
| 68 | GFDLNEYGIS | VIYADGMRTAYADKVK | GEVAGTFDL | En_Gen | 220 pM | 5/6 | 0/18 |
| 69 | GDTLNSYGIS | VIYSDGRRTFYGDSVK | GHIALTFDD | Ctrl | no signal | 0/6 | 0/18 |
| 70 | GFTLNSYGIS | VIYSDGRRTFYMDSVK | GRAAWTFDS | Ctrl | no signal | 0/6 | 0/18 |
| 71 | GFTLNSYGIS | VIYSDGRRTFYDDSVK | YQLAGTFDS | Rand | no signal | 0/6 | 1/18 |
| 72 | GFDLNEYGIS | VIYADGQRTAYVDSVK | GNVAGTFDI | En_Gen | 170 pM | 6/6 | 1/18 |
| 73 | GFDLNSYGIS | VIYSDGRRTFYGDQVK | GNAAGTFDS | GP_Gen | 1.3 nM | 6/6 | 0/18 |
| 74 | GFDLNEYGIS | VIYADGRRTAYADNVK | GNVAGTFDQ | En_Gen | 470 pM | 6/6 | 0/18 |
| 75 | GFTLNDYGIS | VIYSDGMRTFYGDSVK | GRTAGTFDS | GPLM_Gen | 3.7 nM | 6/6 | 0/18 |
| 76 | GFELNSYGIS | VIYSDGRRTFYVDDVK | GRQAGTFDS | GP_Gibbs | 2.4 nM | 6/6 | 0/18 |
| 77 | GFTLNEYGDS | VIYSDGRRTFPGDSVK | GRAAVTFDQ | Rand | no signal | 0/6 | 0/18 |
| 78 | GFNLNEYGIS | VIYADGMRENYADSVK | GGLDVQEGY | En_Gibbs | no signal | 0/6 | 0/18 |

The last 5 entries again:

CDR-H1,CDR-H2,CDR-H3,group,Kd,seen in,signal with controls
GFDLNEYGIS,VIYADGRRTAYADNVK,GNVAGTFDQ,En_Gen,470 pM,6/6,0/18
GFTLNDYGIS,VIYSDGMRTFYGDSVK,GRTAGTFDS,GPLM_Gen,3.7 nM,6/6,0/18
GFELNSYGIS,VIYSDGRRTFYVDDVK,GRQAGTFDS,GP_Gibbs,2.4 nM,6/6,0/18
GFTLNEYGDS,VIYSDGRRTFPGDSVK,GRAAVTFDQ,Rand,no signal,0/6,0/18
GFNLNEYGIS,VIYADGMRENYADSVK,GGLDVQEGY,En_Gibbs,no signal,0/6,0/18

In the paper, a design with two or fewer of six values counts as a poor binder.
Of ten entries with the parent sequence, four were seen in most replicates (averages 2.2 nM to 240 nM), three in one and three in none, so single entries are noisy.
Three control strains display no target. For all heavy chain designs, 1% of the pairings with them gave a signal, with a median of 120 nM and one signal in twenty below 7.0 nM, so weak values seen in few replicates may be background. For each scFv, signals with the empty controls are counted beside the result.
The range of this assay differs from that of the first round, and the authors advise against merging the two.